Measurements published in patent publication US20060166907A1, “Composition for the treatment of nasopharyngeal carcinoma and method of use thereof” (priority 2002, published 2006).

How the values were obtained:
[1] = tested on: C15 cells
[2] = tested on: C666-1 cells; experiment: WST-1 cell viability assay, C666-1 cells; settings: 72 h
Protocol: Cell viability assays were performed in 96 well plastic microplates, either uncoated (C666-1) or coated with Poly HEMA (C15). For each cell line, the number of cells distributed per well was optimized in order to achieve the highest metabolic activity while keeping exponential growth till the end of the test. C15 and C666-1 cells were seeded at 10^5 and 35×10^3/well, respectively, in 150 μl culture medium. Following an overnight pre-incubation culture, serial dilutions of chemotherapy drugs (50 μl; final concentration 50 nM-50 μM) were added in quadruplicate to a […]. At the completion of a 72 h incubation with tested pharmacological agents, cell viability was evaluated using the WST-1 assay (Roche Molecular, France). The WST-1 assay is based on the cleavage of the tetrazolium salt by mitochondrial dehydrogenases. […] Cells were incubated with 10 μl of the WST-1 reagent added to the culture medium, for 3 to 6 h, at 37° C. The plates were subsequently read on an ELISA reader (Dynatech MR7000, Guernsey channel Island, USA) using a 490 nm filter. The mean and standard deviation were determined for quadruplicate samples. […]
(Ali, H. et al., Chemotherapy in advanced nasopharyngeal cancer. Oncology (Huntingt), 14:1223-1230, 2000.) Their short term cytotoxic effect was assessed in vitro on the C15 and C666-1 cells, using a cell viability assay based on WST reduction. […]

## bleomycin
[1]; C15 cells, 72 h, WST-1
  sensitivity to short term cytotoxic effect: No significant effects
[1]; NPC cells, cell line not specified, test concentrations
  enhancement of cytotoxicity by combination with Compound A: not observed
[2]
  sensitivity to short term cytotoxic effect: No significant effects
